US10809222B2, “Opioid detection based on high quality graphene transistor arrays and a synthetic mu receptor” (priority 2013, dated 2020)

Tested on: human μ opioid receptor expressed in HEK293 cells
Assay: Competitive TR-FRET (HTRF) binding competition assay with native MUR and naltrexone-derived fluorescent antagonist
Conditions: negative control
Source text: FIG. 16. […] Data is used to calculate HTRF ratios, and represent the mean±standard error of mean of quadruplicates. ΔF is used for the comparison of different runs of the same assay which reflects the signal to background of the assay. ΔF=[(Ratiosample−Ratiobackgroud)/Ratiobackgroud](%).
A recently developed methodology which uses a fluorescently labeled ligand and the native MUR was used to investigate the ligand-binding capabilities of the water-soluble receptors.

## HSA: human serum albumin, a soluble helical protein, negative control
  change in the fluorescence ratio (665 nm/620 nm): no significant change
